Source: patent US5877026A, “Analgesic peptides from venom of Grammostola spatulata and use thereof” (priority 1998, dated 1999)

Legend:
opioid receptors = assay: Opioid receptor testing (opioid antagonist pretreatment); assay type: in vivo, rat; conditions: 3 μg i.th.
Experimental: Animals were then tested in the tail flick test (Example 3) and von Frey tests (Example 5).

Sprague Dawley rats = conditions: rat, in vivo

Structure (SMILES): CN1CC[C@]23c4c5ccc(O)c4O[C@H]2[C@@H](O)C=C[C@H]3[C@H]1C5 [morphine, reference compound]
- effect of intrathecal naloxone on analgesic response (opioid receptors; naloxone 50 μg i.th.): reversal
- effect of naloxone pretreatment on analgesic effect (opioid receptors; naloxone 10mg/kg subcutaneous, tail flick and von Frey tests): completely antagonized
- shift in the dose response curve, morphine-treated versus saline vehicle (Sprague Dawley rats): 300 ×
